BindingDB's records for 1315869 (Nova Pharmaceutical, 1992)

How the values were obtained:
[1] = molecular target: T1, Sigma non-opioid intracellular receptor 1 (Homo sapiens, UniProt Q99720); test: (§1) Potency at the sigma binding site was determined in radioligand
[2] = molecular target: T1, Sigma non-opioid intracellular receptor 1; test: as §1; remark: listed apart in the source
[3] = molecular target: T1, Sigma non-opioid intracellular receptor 1; test: ChEBML_201751

Compound	IC50 [1] [µM]	IC50 [2] [µM]	IC50 [3] [µM]
O=C1NCN(c2ccccc2)C12CCN(CCCCCCOc1ccc3oc(-c4ccccc4)cc(=O)c3c1)CC2	1.2	1.9	
O=c1cc(-c2ccccc2)oc2ccc(OCCCCCCN3CCC(n4c(=O)[nH]c5ccccc54)CC3)cc12	0.369		0.347
